{"sequences": {"note": "Protein sequences, listed by entry. Tags and fused reporters are not part of them.", "UniProt Q86WV6, whole entry H232R/R284S": "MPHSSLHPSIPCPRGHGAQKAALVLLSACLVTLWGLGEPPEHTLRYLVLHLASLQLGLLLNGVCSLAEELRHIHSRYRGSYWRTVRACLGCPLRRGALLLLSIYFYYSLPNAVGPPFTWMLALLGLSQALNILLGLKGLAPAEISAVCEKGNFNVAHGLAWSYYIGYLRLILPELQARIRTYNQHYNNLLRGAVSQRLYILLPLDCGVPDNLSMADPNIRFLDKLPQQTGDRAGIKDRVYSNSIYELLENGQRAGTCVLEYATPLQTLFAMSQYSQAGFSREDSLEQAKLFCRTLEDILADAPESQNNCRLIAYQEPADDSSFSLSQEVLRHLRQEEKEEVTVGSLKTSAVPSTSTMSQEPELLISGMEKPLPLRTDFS"}, "source": "patent US11541030B2", "about": "“Methods for the treatment of inflammation associated with infection” (NOXOPHARM LIMITED, priority 2020, dated 2023)", "key": {"R284S STING mutant": {"biological_target": "R284S STING mutant (Homo sapiens, UniProt Q86WV6, R284S)", "assay": "IP-10 ELISA in mouse iBMMs with Dox-inducible STING R284S", "settings": "2.5 uM pre-treatment 1 h, overnight Dox"}, "human STING R284S mutant": {"biological_target": "human STING R284S mutant (Homo sapiens, UniProt Q86WV6, R284S)", "assay": "IP-10 ELISA in THP-1 cells with Dox-inducible STING R284S", "settings": "THP-1, 2.5 uM for 1 h prior to overnight Dox"}}, "data": [{"smiles": "Oc1ccc(C2=Cc3ccc(O)cc3OC2)cc1", "note": "[IDX, 2H-1-Benzopyran-7-0,1,3-(4-hydroxyphenyl)]", "values": [{"measurement": "IP-10 induction by STING R284S", "setting": "R284S STING mutant", "value": "blunted"}, {"measurement": "IP-10 (IRF3 branch) induced by STING R284S expression", "setting": "human STING R284S mutant", "value": "significantly reduce"}]}]}
